Data reported in US10112899B2 (ViiV HEALTHCARE UK LIMITED, priority 2014, dated 2018).

Test system: HIV in the HTLV-1 transformed cell line MT-4
Experiment: organism not typed
Format: cell-based
Conditions: MT4, 96 h, MT-4 cells; luciferase/cell titer glo readout after 96 hours; 10 point dose response

Compound | IC50 [nM]
Cc1c(-c2c(C)c3c(c(C)c2[C@H](OC(C)(C)C)C(=O)O)CN(C(=O)c2cccc(F)c2)C3)cc(Cl)c2c1CCCO2 (atropisomer, axis not shown; (M)) [Example 295, (S)-2-(tert-butoxy)-2-((M)-6-(8-chloro-5-methylchroman-6-yl)-2-(3-fluorobenzoyl)-4,7-dimethylisoindolin-5-yl)acetic acid] | 9
Cc1ccc(-c2c(C)c3c(c(C)c2[C@H](OC(C)(C)C)C(=O)O)CN(C(=O)c2cccc(F)c2)C3)cc1 [Example 108, (S)-2-(tert-butoxy)-2-(2-(3-fluorobenzoyl)-4,7-dimethyl-6-(p-tolyl)isoindolin-5-yl)acetic acid] | 6
Cc1c2c(c(C)c([C@H](OC(C)(C)C)C(=O)O)c1-c1ccc(Cl)cc1)CN(C(=O)c1cccc(F)c1)C2 [Example 133, (S)-2-(tert-butoxy)-2-(6-(4-chlorophenyl)-2-(3-fluorobenzoyl)-4,7-dimethylisoindolin-5-yl)acetic acid] | 5
Cc1cc(Cl)ccc1-c1c(C)c2c(c(C)c1[C@H](OC(C)(C)C)C(=O)O)CN(C(=O)c1cccc(F)c1)C2 [Example 296, (2S)-2-(tert-butoxy)-2-(6-(4-chloro-2-methylphenyl)-2-(3-fluorobenzoyl)-4,7-dimethylisoindolin-5-yl)acetic acid] | 5
Cc1ccc(-c2c(C)c3c(c(C)c2[C@H](OC(C)(C)C)C(=O)O)CN(C(=O)c2cccc(F)c2)C3)c(O)c1 [Example 297, (2S)-2-(tert-butoxy)-2-(2-(3-fluorobenzoyl)-6-(2-hydroxy-4-methylphenyl)-4,7-dimethylisoindolin-5-yl)acetic acid] | 42
COc1ccc(-c2c(C)c3c(c(C)c2[C@H](OC(C)(C)C)C(=O)O)CN(C(=O)c2cccc(F)c2)C3)c(C)c1 [Example 298, (2S)-2-(tert-butoxy)-2-(2-(3-fluorobenzoyl)-6-(4-methoxy-2-methylphenyl)-4,7-dimethylisoindolin-5-yl)acetic acid] | 24
Cc1c2c(c(C)c([C@H](OC(C)(C)C)C(=O)O)c1-c1ccc(Cl)c3cccnc13)CN(C(=O)c1cccc(F)c1)C2 [Example 300, (2S)-2-(tert-butoxy)-2-(6-(5-chloroquinolin-8-yl)-2-(3-fluorobenzoyl)-4,7-dimethylisoindolin-5-yl)acetic acid] | 40
